63 compounds from PubChem BioAssay AID2650 (Broad Institute, 2010) can be followed below.

The chains behind the UniProt entries cited, without tags or fusion partners. Where a name states a change or a piece, a line headed by the entry shows the natural chain unless it says otherwise.
UniProt P49840: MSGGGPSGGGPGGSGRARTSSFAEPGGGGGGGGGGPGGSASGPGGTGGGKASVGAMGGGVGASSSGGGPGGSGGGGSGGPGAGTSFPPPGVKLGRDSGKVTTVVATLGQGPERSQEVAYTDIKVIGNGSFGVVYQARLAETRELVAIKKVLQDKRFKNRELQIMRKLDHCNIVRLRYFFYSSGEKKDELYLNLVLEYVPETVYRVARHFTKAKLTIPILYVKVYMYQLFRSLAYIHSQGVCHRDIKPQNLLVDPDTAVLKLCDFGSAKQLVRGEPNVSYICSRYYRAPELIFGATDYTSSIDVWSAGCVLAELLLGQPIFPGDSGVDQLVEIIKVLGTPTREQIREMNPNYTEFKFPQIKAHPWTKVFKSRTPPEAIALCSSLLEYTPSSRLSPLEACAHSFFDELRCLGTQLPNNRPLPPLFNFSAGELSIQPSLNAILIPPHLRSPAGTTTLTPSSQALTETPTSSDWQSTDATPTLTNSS

The structures appear in SMILES notation. Only a part is listed here, and it is no random draw. The source made the active and inactive calls.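 Rule for the calls: active = more than half of replicates show inhibition above 20%; inconclusive = some but at most half of replicates above 20% inhibition; inactive = no replicate shows inhibition above 20%.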

For the experiment, the target named is Glycogen synthase kinase-3 alpha (Homo sapiens) (UniProt P49840). Briefly: blockers of GSK3A enzyme activity – biochemical, luminescence, cell-free homogeneous, HTS, primary screen (AID 2650).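 Note: GST-tagged GSK-3 alpha with peptide substrate and 25 µM ATP; 0% = DMSO neutral wells and 100% = GW8510 positive control wells.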 The conditions noted are these: GSK-3 alpha kinase, ADP-Glo luminescence, 60 min; at 10 µM; stronger effect = higher value.
Turning to `CN(C)C1(CNC(=O)c2ccc(Cl)c(S(N)(=O)=O)c2)CCCCC1`, the inhibition was inactive: -3.32%.

As to `O=P(Nc1ccccn1)(c1ccc(Br)cc1)c1ccc(Br)cc1`, the inhibition is inactive: -1.32%.

On to `Nc1ccc([As](=O)(O)c2ccc([N+](=O)[O-])cc2)cc1`, for which the inhibition is inactive: -2.23%.

As for `C(Cc1nn[nH]n1)Cc1nn[nH]n1`, the inhibition was inactive: -0.397%.

As to `O=C(OC1CN2CCC1CC2)c1cccc(Cl)c1` (stereo not drawn), the inhibition was inactive: 0.363%.

As to `CC(=O)NC(SC(=S)N(C)C)C(Cl)(Cl)Cl` (stereo not drawn), the inhibition is inactive: -2.96%.

In the case of `O=[N+]([O-])c1ncn(CCn2cnc([N+](=O)[O-])n2)n1`, the inhibition is inactive: -0.193%.

Take `O=[N+]([O-])c1ccc(O)c(/C=N/Nc2ccc([N+](=O)[O-])cc2[N+](=O)[O-])c1`: the inhibition was inactive: -0.892%.

For `O=[As](O)(c1ccccc1)c1ccc(O)cc1`, the inhibition was inactive: -0.566%.

Take `O=C(/C=C/c1ccccc1)OC1CN2CCC1CC2` (stereo not drawn): the inhibition is inactive: -1.46%.

For the compound `CN(C)C1(CNC(=O)c2ccc(S(C)(=O)=O)cc2)CCCCC1`, the inhibition is inactive: -2.29%.

Regarding `Cc1ccc(C(=O)OC2CN3CCC2CC3)cc1` (stereo not drawn), the inhibition was inactive: -0.717%.

`CC1CCC(C(C)C)C(OP(=O)(Nc2ccccn2)c2ccccc2)C1` (stereo not drawn): the inhibition is inactive: -1.85%.

`Cc1nn(-c2ccccc2)c2c1P(=O)(N1CCOCC1)N(C)C(c1ccccc1)=N2` (stereo not drawn): the inhibition was inactive: -0.775%.

As to `NS(=O)(=O)c1cccc(NC(=O)COC(=O)C(O)(c2ccccc2)c2ccccc2)c1`, the inhibition is inactive: 6.46%.

In the case of `O=P1(Nc2ccc(Br)cn2)COc2ccccc2OC1`, the inhibition is inactive: 0.3%.

On to `Cc1ccc(OCC(=O)OC2CN3CCC2CC3)cc1` (stereo not drawn), for which the inhibition is inactive: -0.826%.

Regarding `O=[As](O)(c1cccs1)c1cccs1`, the inhibition is inactive: 1.18%.

On to `Nc1cccc([As](=O)(O)c2ccccc2)c1`, for which the inhibition is inactive: -1%.

Consider `O=P1(Nc2ncccn2)COc2ccccc2OC1`, for which the inhibition was inactive: -1.64%.

`CC(C)(C)C(=O)NC(Sc1ncccn1)C(Cl)(Cl)Cl` (stereo not drawn): the inhibition is inactive: -2.55%.

In the case of `Clc1n[nH]nc1-c1nn[nH][15n]1`, the inhibition is inactive: -3.65%.

Regarding `CN(CCCl)Cc1cc(Cl)c(NC2=NCCN2)c(Cl)c1`, the inhibition was inactive: 0.531%.

For the compound `CCOP(=O)(Nc1ccc(C)cn1)OCC`, the inhibition was inactive: 1.16%.

Take `CCOP(=O)(NC(=NC(C)c1ccccc1)NC(C)c1ccccc1)OCC` (stereo not drawn): the inhibition was inactive: -1.65%.

Consider `CCC1=CC2Cc3nc4ccc(Cl)cc4c(N)c3C(C1)C2` (stereo not drawn), for which the inhibition was inactive: -0.502%.

On to `O=P1(Nc2ccccn2)COc2ccccc2OC1`, for which the inhibition is inactive: -2%.

Take `CC1(CBr)Cn2c(nc3ccccc3c2=O)S1` (stereo not drawn): the inhibition is inactive: -1.95%.

For the compound `O=[As](O)(c1ccccc1Br)c1ccccc1Br`, the inhibition was inactive: -1%.

In the case of `CN(C(=O)Cc1ccc(Cl)c(Cl)c1)[C@@H]1CCCC[C@H]1N1CCCC1`, the inhibition is inactive: 0.186%.

Turning to `CC(C)/C=N\N=C(\N)N[N+](=O)[O-]`, the inhibition is inactive: -1.94%.

Regarding `COc1ccccc1CNC(=O)COC(=O)C(O)(c1ccccc1)c1ccccc1`, the inhibition is inactive: -2.18%.

As to `O=[As](O)(c1cccc(O)c1)c1cccc(O)c1`, the inhibition was inactive: -0.47%.

For `Cc1cccc(OCC(=O)OC2CN3CCC2CC3)c1` (stereo not drawn), the inhibition was inactive: -0.82%.

With `CS(=O)(=O)c1ccc(Cl)c(NC(=O)COC(=O)C(O)(c2ccccc2)c2ccccc2)c1`, the inhibition is inactive: 2.32%.

As for `COc1cc(C(=O)NCC2(N3CCOCC3)CCCCC2)cc(Cl)c1OC(C)C`, the inhibition was inactive: -3.63%.

Regarding `O=C(OC1CN2CCC1CC2)c1ccc(Cl)cc1` (stereo not drawn), the inhibition was inactive: -0.395%.

With `CCOP(=O)(Nc1cccc2ccccc12)OCC`, the inhibition is inactive: -1.91%.

Consider `COc1cc(C2NCCC3(OCCO3)C2(C)C)cc(OC)c1OC` (stereo not drawn), for which the inhibition was inactive: -2.05%.

On to `CCCOP(=S)(Nc1nc(N)cc(=O)[nH]1)OCCC`, for which the inhibition was inactive: -1.9%.

Take `Cc1ccc(NCCc2c([N+](=O)[O-])cc([N+](=O)[O-])cc2[N+](=O)[O-])cc1`: the inhibition is inactive: 1.12%.

Turning to `Nc1cccc2c([As](=O)(O)O)cccc12`, the inhibition is inactive: -1.86%.

For `O=C(O)COc1ccc([As](=O)(O)O)cc1[N+](=O)[O-]`, the inhibition was inactive: -0.569%.

In the case of `Nc1ccccc1[As](=O)(O)c1ccccc1`, the inhibition is inactive: -0.222%.

Regarding `CS(=O)(=O)c1cc([N+](=O)[O-])c2no[n+]([O-])c2c1`, the inhibition was inactive: 2.04%.

Regarding `O=P(Nc1nccs1)(c1ccccc1)c1nc2ccccc2s1` (stereo not drawn), the inhibition was inactive: -3.03%.

On to `O=P(Nc1nccs1)(Oc1ccccc1)Oc1ccccc1`, for which the inhibition was inactive: -1.11%.

On to `CCOP1(=S)c2c(C)nn(CCC#N)c2N=C(c2ccccc2F)N1C` (stereo not drawn), for which the inhibition is inactive: -2.66%.

As for `CN(C(=O)Cc1ccc(Cl)c(Cl)c1)[C@H]1CC[C@@]2(CCCO2)C[C@@H]1N1CCCC1`, the inhibition was inactive: -0.758%.

On to `CN(C)C(=O)c1cc([N+](=O)[O-])cc2c1-c1c(cc([N+](=O)[O-])cc1[N+](=O)[O-])C2=O`, for which the inhibition was inactive: -2.16%.

Turning to `O=[N+]([O-])c1ccc2c(c1)nnn2O`, the inhibition is inactive: -1.67%.

On to `CN(C(=O)Cc1ccccc1)[C@@H]1CC[C@]2(CCCO2)C[C@H]1N1CCCC1`, for which the inhibition is inactive: -1.44%.

As for `CCOP1(=S)c2c(C)nn(CCC#N)c2N=C(c2ccc(F)cc2)N1C` (stereo not drawn), the inhibition is inactive: -7.71%.

`N#CCCN(C(=O)COC(=O)C(O)(c1ccccc1)c1ccccc1)c1ccc(F)cc1`: the inhibition is inactive: -3.97%.

Regarding `NC(=O)Nc1ccc([As](=O)(O)O)cc1`, the inhibition was inactive: -0.607%.

In the case of `Cc1ccc2nc3c(c(C)c2c1)CC(C(Cl)Cl)S3` (stereo not drawn), the inhibition was inactive: 1.41%.

For the compound `Cc1ccc(OP(=O)(Nc2ccc([N+](=O)[O-])cn2)Oc2ccc(C)cc2)cc1`, the inhibition was inactive: -1.67%.

For `COc1cc(C(=O)NCC2(N3CCOCC3)CCCCC2)ccc1OCC(C)C`, the inhibition was inactive: -3.54%.

Turning to `C[As](=O)(O)c1cccc(C(=O)O)c1`, the inhibition was inactive: 0.823%.

For the compound `O=[As](O)(c1ccc(O)cc1)c1ccccc1O`, the inhibition was inactive: 9.54%.

As for `O=[N+]([O-])c1cc([N+](=O)[O-])c(-c2ccn[nH]2)s1`, the inhibition was inactive: 0.914%.

For the compound `CCN(CC)C(=S)SC(NC=O)C(Cl)(Cl)Cl` (stereo not drawn), the inhibition is inactive: -0.308%.

For the compound `CC(C)NC(=O)NP(=O)(Oc1ccccc1)Oc1ccccc1`, the inhibition was inactive: -2.42%.
